According to ChEMBL document CHEMBL1955770, “Inhibition of S/G2 phase CDK4 reduces mitotic fidelity” (J Biol Chem, 2006):

Key:
Homo sapiens [1] = organism: Homo sapiens; test: Selectivity ratio of IC50 for human CDK2-cyclin E to IC50 for human CDK4-cyclin D
Homo sapiens [2] = organism: Homo sapiens; test: Selectivity ratio of IC50 for human CDK1-cyclin B to IC50 for human CDK4-cyclin D

Ratio IC50 (Homo sapiens [1]): > 100
Ratio IC50 (Homo sapiens [2]): > 100
Structure (SMILES): CN1CCN(c2ccc(Nc3nc(N)c(C(=O)c4ccc5c(c4)OCCO5)s3)cc2)CC1
